Laboratory results published in ChEMBL document CHEMBL4270621, “Discovery of long-chain salicylketoxime derivatives as monoacylglycerol lipase (MAGL) inhibitors” (Eur J Med Chem, 2018).

By UniProt entry, the sequences of proteins in these tests, tags left out.
UniProt Q92731, whole entry: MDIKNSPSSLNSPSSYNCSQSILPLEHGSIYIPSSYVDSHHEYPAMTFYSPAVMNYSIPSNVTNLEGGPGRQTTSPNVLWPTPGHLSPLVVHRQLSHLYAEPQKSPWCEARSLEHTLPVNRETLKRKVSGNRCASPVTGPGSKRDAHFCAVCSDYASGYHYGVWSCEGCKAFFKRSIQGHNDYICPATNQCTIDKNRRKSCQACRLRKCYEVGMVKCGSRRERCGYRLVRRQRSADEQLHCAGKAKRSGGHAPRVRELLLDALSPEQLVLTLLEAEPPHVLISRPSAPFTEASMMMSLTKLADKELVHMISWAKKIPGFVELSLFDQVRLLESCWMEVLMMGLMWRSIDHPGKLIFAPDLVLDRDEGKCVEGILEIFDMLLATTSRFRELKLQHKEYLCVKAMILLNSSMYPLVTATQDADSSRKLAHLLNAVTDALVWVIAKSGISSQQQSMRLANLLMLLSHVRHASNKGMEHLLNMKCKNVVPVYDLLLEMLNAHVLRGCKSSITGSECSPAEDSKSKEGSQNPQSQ
UniProt P03372, whole entry: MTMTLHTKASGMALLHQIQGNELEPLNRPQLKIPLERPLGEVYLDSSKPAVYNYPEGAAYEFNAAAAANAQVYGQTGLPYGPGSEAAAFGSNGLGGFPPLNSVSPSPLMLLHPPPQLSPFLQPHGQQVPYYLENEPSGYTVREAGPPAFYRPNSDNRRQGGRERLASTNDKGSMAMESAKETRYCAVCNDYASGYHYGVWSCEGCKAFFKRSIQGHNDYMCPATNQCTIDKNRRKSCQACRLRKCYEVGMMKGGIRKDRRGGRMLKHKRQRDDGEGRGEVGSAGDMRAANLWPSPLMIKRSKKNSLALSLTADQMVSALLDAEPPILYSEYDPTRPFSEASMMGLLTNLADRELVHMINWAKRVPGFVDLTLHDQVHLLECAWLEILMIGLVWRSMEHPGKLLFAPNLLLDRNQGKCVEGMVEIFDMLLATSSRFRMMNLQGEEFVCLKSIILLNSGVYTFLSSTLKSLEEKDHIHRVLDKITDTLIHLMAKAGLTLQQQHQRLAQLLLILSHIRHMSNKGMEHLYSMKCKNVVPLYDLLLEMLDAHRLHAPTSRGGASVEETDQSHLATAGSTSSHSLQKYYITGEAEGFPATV

Assays:
[1] = biological target: Estrogen receptor beta (Homo sapiens) (UniProt Q92731); experiment: Displacement of [3H]-estradiol from full length human ERbeta expressed in insect cells after 18 to 24 hrs by radiometric method relative to estradiol
[2] = biological target: Estrogen receptor (Homo sapiens) (UniProt P03372); experiment: Displacement of [3H]-estradiol from full length human untagged ERalpha expressed in Sf insect cells after 18 to 24 hrs by radiometric method relative to estradiol

Row | Compound | RBA [1] | RBA [2]
1 | CCCCCCCCCCC/C(=N\O)c1cc(-c2ccc(O)c(F)c2)ccc1O | 6.8% | 0.31%
2 | CCCCCCCCCCCCC/C(=N\O)c1cc(-c2ccc(O)c(F)c2)ccc1O | 2.6% | 0.17%
